The source of these data is patent publication US20200270233A1, “DHFR INHIBITORS, COMPOSITIONS, AND METHODS RELATED THERETO” (Vyera Pharmaceuticais LLC, priority 2017, published 2020).

Amino acid sequences for entries named in this document (tags omitted). A change or cut given only in a name is not applied to a line headed by its entry.
UniProt P07382: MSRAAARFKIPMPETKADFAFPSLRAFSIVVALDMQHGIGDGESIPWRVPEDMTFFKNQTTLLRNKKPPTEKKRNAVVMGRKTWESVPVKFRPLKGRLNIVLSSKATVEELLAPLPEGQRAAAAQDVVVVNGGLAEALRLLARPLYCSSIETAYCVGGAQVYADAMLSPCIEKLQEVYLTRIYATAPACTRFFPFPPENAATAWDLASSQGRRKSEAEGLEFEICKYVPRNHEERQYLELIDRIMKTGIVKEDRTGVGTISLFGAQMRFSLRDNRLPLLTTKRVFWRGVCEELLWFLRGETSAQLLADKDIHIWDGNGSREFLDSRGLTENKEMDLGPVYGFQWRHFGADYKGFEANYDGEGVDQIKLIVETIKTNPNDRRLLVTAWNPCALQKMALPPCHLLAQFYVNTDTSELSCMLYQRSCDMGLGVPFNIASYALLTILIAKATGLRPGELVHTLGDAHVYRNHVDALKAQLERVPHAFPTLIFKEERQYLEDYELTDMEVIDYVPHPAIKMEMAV

In the assay the target is L. major DHFR (lmDHFR) (Leishmania major, UniProt P07382). Put plainly: biochemical.

As to `CCc1nc(N)nc(N)c1-c1ccc(Cl)cc1` [pyrimethamine, reference compound], the 50% inhibitory concentration (IC50) was 5.62 µM.
